## AlphaSeq binding of Ab-14 heavy chain variants to a spike HR2 peptide

All variants were tested on one target, the spike HR2 peptide PDVDLGDISGINAS (SARS-CoV-2).

Parent scFv Ab-14: VH joined to VL by a 15-residue (Gly4Ser)3 linker. Changes lie in the heavy chain CDRs alone.
VH: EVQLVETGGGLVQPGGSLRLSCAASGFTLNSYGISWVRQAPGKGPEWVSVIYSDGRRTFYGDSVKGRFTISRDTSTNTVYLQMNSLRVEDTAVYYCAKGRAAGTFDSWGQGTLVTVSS
VL: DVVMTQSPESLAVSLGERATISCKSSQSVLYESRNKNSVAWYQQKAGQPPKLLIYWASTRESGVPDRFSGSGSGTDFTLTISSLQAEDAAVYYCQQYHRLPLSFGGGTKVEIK

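Phage display of a naive human antibody library on the peptide gave the parent. Variants in AAYL49 differ from the parent at up to three CDR positions; double and triple changes were sampled at random. In AlphaSeq, yeast of one mating type display the scFv and yeast of the other type display the target. After mating in shaken culture at 30 °C for 16 h, diploids were selected and their barcode pairs sequenced. Scores were corrected for input abundance and mapped to Kd with protein pairs of known affinity run in the same pool. Each pool was mated in three replicate cultures.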

Variants are written as CDR1, CDR2 and CDR3 of the heavy chain (limits as in the source). Parent: GFTLNSYGIS, VIYSDGRRTFYGDSVK, GRAAGTFDS.
The read-out is the apparent dissociation constant on a log10 scale (nM): the lower, the stronger.
"ND" marks a missing value. The strain was present, yet no cells mated with the target were sequenced in that replicate, which points to weak or no binding.
Empty control strains, which show no peptide, gave a signal in 15% of pairings with library AAYL49; the median was 4.06 and 95% of these signals were weaker than 2.83. No background was subtracted. Also given: how often the same scFv was detected with the empty control strains, with their mean in brackets.

CDR-H1	CDR-H2	CDR-H3	log10 Kd (nM) by replicate	signal with controls
RFTLNSYGIS	VIYSDGCRTFYGDSVK	GRAAMTFDS	ND / ND / ND	0/9
GFTLNSYGMS	VIYSDGVRTFYGDSVK	GRAAGTFMS	2.54 / 2.90 / 2.36	1/9 (3.19)
GFTLNSYGIS	VAYSDGRRTFYGKSVK	GTAAGTFDS	ND / ND / ND	0/9
GFTLNSYGII	VIYSDGRRTFYGDSVK	GRTAGTFDS	5.01 / ND / ND	2/9 (3.77)
GFTLNSYGIS	VIYSDNRRTFYGDSVK	GQAAGTCDS	ND / ND / ND	1/9 (3.44)
GFTLNSYGIS	VIYSTGRRTFYGDSVK	GYAAGWFDS	ND / ND / ND	0/9
GFTLNSYGIS	VIPSDGRRTFYGDSVK	IRAAGTFDR	ND / ND / ND	6/9 (4.32)
GITLNSYGIS	VIYSDGRRTFYGDAVK	GRALGTFDS	ND / ND / ND	1/9 (2.87)
GFTLNSYGIH	VIYSDMRRWFYGDSVK	GRAAGTFDS	ND / ND / ND	1/9 (1.90)
GFTLNSYGIS	VIYSNGRRTFYGDSHK	GAAAGTFDS	ND / ND / ND	0/9
GFNLNSYGIS	VIYSDGRRTFEGDSVK	GRAAGDFDS	ND / ND / ND	1/9 (2.55)
GFTLNSYSIS	VIYSDGQRTFYGDSVK	CRAAGTFDS	4.76 / ND / ND	1/9 (3.42)
GYTLNSYGIS	VIASDGRRTFIGDSVK	GRAAGTFDS	5.35 / 4.10 / 4.41	6/9 (4.33)
GRTLNSYGIS	VIYSDGGRTFYGDSVK	GAAAGTFDS	3.08 / ND / 2.73	0/9
GFTLNSYGIM	VIYSDNRRTFYGDSWK	GRAAGTFDS	ND / ND / ND	1/9 (3.58)
GFTLNSYGIS	VIYSDGRPMFYGDSVK	GRAAGTFDS	ND / ND / ND	1/9 (3.71)
GFTLNSYGIS	VIISAGRRTFYMDSVK	GRAAGTFDS	ND / ND / ND	1/9 (3.74)
GFTGNSSGIS	VIYSKGRRTFYGDSVK	GRAAGTFDS	ND / ND / ND	1/9 (3.01)
GFTLNSYGIM	VIYSDGIRTFYGDSVK	GRAAGTFDN	3.41 / ND / 4.55	1/9 (4.61)
GFTLNSYGID	VIYSMGRRTFFGDSVK	GRAAGTFDS	3.48 / ND / ND	0/9
GFTLNSYTIS	VICSDSRRTFYGDSVK	GRAAGTFDS	5.51 / 3.71 / 4.51	8/9 (4.55)
GFTPNSYGIS	VIYSDGRRTFYGDSVA	GRAAGTFDS	ND / 2.32 / 3.48	1/9 (3.83)
GFTLNSYGVR	SIYSDGRRTFYGDSVK	GRAAGTFDS	5.62 / ND / 4.28	1/9 (4.84)
GFTLNSYGIS	VIYHDGRRTFYGDSHK	NRAAGTFDS	ND / ND / ND	0/9
GFTLNSAGIS	VIYSDGRRTFYGDSVK	GRAAGTFQM	ND / 3.84 / ND	2/9 (4.18)
GMLLNSYGIS	VIYSDGRRTFYGDSVK	GRATGTFDS	3.84 / ND / ND	1/9 (3.34)
GFTLNSYGIS	VIYSDGRRTFYGDSVF	GRTAWTFDS	ND / ND / ND	0/9
LFRLNSYGIS	VIYSDGRRTFYGDSVK	GRAAGFFDS	ND / ND / ND	0/9
GFTLNSYGIS	VIYGDGRRTFYGDSWK	GRAAPTFDS	ND / ND / ND	1/9 (4.41)
GFTLNSYGIS	VSYADGRRTFYGDSVK	GRAACTFDS	ND / ND / ND	1/9 (3.15)
GFTLNSYGIH	VIESDYRRTFYGDSVK	GRAAGTFDS	ND / ND / 4.56	4/9 (4.01)
GFTLNSYGIS	VIYSDGQRTFYGDTVK	GRMAGTFDS	0.75 / 0.86 / 0.60	0/9
GFTENSYGIS	VIYSDGRMTFYGDSVS	GRAAGTFDS	ND / 2.97 / 3.21	0/9
GFTLNSYGIS	VIYSDARRTFLGDSVK	GRAAGTFDL	ND / 4.13 / ND	1/9 (3.50)
GFTRNSYGIS	VIYSDGRQTFYGTSVK	GRAAGTFDS	5.26 / 4.47 / 4.93	6/9 (4.66)
GFTLNSYGIS	VIYSDGRRTFYGRSVR	GRAAGTFDS	2.41 / 2.71 / 2.83	0/9
GFTLNSYGVS	VIYSDGRRTWYGDSVK	GRAAGTFDS	2.64 / 2.63 / 3.11	1/9 (4.33)
GFTFNSYGIS	VYYSDGRRTFYGDSVK	GRADGTFDS	ND / ND / ND	1/9 (2.92)
GFTLNSYRIS	VIYSDGRRTFYGDSVK	QRAAGTYDS	ND / 2.78 / ND	0/9
GFTLNSMGIV	VIYSDGRRTFYGDLVK	GRAAGTFDS	4.88 / 4.33 / ND	5/9 (5.03)
GFTLNSYGID	VIYSYGRRTFYGDSVK	GRAAGTFDS	ND / ND / ND	2/9 (3.71)
GFFLNSRGIS	VIYSDGRRTFYGDSVK	GRAAGTFDL	ND / ND / ND	1/9 (3.80)
GFTLNSYGIS	VIYSDGRRTFGGDSVK	HRAAGTRDS	ND / ND / ND	3/9 (4.00)
GFTLNSYGIS	VIYLDGRRTFYGDSVK	GRAAGTSDW	ND / ND / ND	0/9
GCTLNSYGLS	VIYSDGRRTKYGDSVK	GRAAGTFDS	5.65 / 4.26 / 4.71	9/9 (4.95)
GFTLNSYGIS	VIYSIGRRTFYGDGVK	GRAAYTFDS	ND / ND / ND	0/9
GFTLNSYGIS	VTYSDGCRTFYGDSVK	GVAAGTFDS	ND / ND / ND	2/9 (5.00)
YFTLNSYGIS	VIYSDERRTFYWDSVK	GRAAGTFDS	ND / ND / 3.19	1/9 (3.82)
GFTLNDYGIS	VCYSDGRRTFYGDSVK	GRSAGTFDS	ND / ND / ND	0/9
GFTYNSYGIS	VIYSDGRRTFEGDSVK	GRQAGTFDS	ND / ND / ND	2/9 (3.46)
GFTLNSYGIF	VIYSFGRRTFYGDSVK	GRAACTFDS	ND / ND / ND	0/9

The first 5 variants above that were never detected:

CDR-H1	CDR-H2	CDR-H3	log10 Kd (nM) by replicate	signal with controls
RFTLNSYGIS	VIYSDGCRTFYGDSVK	GRAAMTFDS	ND / ND / ND	0/9
GFTLNSYGIS	VAYSDGRRTFYGKSVK	GTAAGTFDS	ND / ND / ND	0/9
GFTLNSYGIS	VIYSDNRRTFYGDSVK	GQAAGTCDS	ND / ND / ND	1/9 (3.44)
GFTLNSYGIS	VIYSTGRRTFYGDSVK	GYAAGWFDS	ND / ND / ND	0/9
GFTLNSYGIS	VIPSDGRRTFYGDSVK	IRAAGTFDR	ND / ND / ND	6/9 (4.32)

Values reported by Engelhart et al. 2022, doi:10.1038/s41597-022-01779-4 (FLAb copy).